Results published in patent US9475779B2, “Substituted bicyclic dihydropyrimidinones and their use as inhibitors of neutrophil elastase activity” (priority 2014, dated 2016).

Protein sequences, listed by entry. Tags and fused reporters are not part of them. Lines headed by an entry give the natural chain unless they say otherwise; changes in a name come on top.
UniProt P08246: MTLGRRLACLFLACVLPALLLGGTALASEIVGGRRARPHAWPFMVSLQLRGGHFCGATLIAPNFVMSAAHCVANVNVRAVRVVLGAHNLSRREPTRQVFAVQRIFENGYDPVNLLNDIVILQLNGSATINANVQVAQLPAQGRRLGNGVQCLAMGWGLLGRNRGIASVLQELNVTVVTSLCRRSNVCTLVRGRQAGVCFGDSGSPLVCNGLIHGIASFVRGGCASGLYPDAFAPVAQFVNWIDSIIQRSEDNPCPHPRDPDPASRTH

Target: neutrophil elastase (Homo sapiens (Human), UniProt P08246)
Assay: biochemical
Conditions: substrate MeOSuc-Ala-Ala-Pro-Val-AMC

SMILES | IC50 (IC50, Neutrophil Elastase assay) [nM] | IC50 (Neutrophil Elastase assay) [nM]
CC[S+]([O-])c1cc(C#N)ccc1C1C2=C(CCC2=O)N(c2cccc(C(F)(F)F)c2)C(=O)N1C (single isomer, unassigned) [Example C.5.1, 3-Ethanesulfinyl-4-[3-methyl-2,5-dioxo-1-(3-trifluoromethyl-phenyl)-2,3,4,5,6,7-hexahydro-1H-cyclopentapyrimidin-4-yl]-benzonitrile] | 1.9 | 
CC[S+]([O-])c1cc(C#N)ccc1C1C2=C(CCC2=O)N(c2cccc(C(F)(F)F)c2)C(=O)N1C (single isomer, unassigned) [Example C.5.2, 3-Ethanesulfinyl-4-[3-methyl-2,5-dioxo-1-(3-trifluoromethyl-phenyl)-2,3,4,5,6,7-hexahydro-1H-cyclopentapyrimidin-4-yl]-benzonitrile] |  | 1.9
